Compound activity: PubChem, Broad Institute
This is a sample that favours compounds with a hit; in the whole collection about 0.73% have one here.
RAD52 anneal inh = RAD52 (human) annealing inhibition. P43351. recombinant RAD52 DNA annealing, FRET fluorescence. AID 651710. inhibition, % at 18.7 µM. hit rate 0.46% among 360,000;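 active = every replicate showing at least 50% inhibition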
E-sel inducer = induces E-selectin expression in human endothelial cells; HUVEC E-selectin immunofluorescence imaging; normalized: neutral wells 0, TNF-alpha wells 100; activation, % at 7.58 µM; AID 686992; hit rate 0.37% among 260,000; P16581;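 active = mean E-selectin-positive cell signal at least 10% of the positive control, reached in at least 60% of replicates, without over 20% cell loss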
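System: HUVEC, human umbilical vein endothelial cells; quantity: 3,000 cells/well; buffer or medium: EGM-2 medium, gelatin-coated wells; dosing: single-point compound dose; detection: immunofluorescence imaging; evaluation: % PE-positive cells; benchmarks: TNF-alpha, DMSO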
XiGFP reactiv = activators of X-chromosome reactivation in mouse fibroblasts; XiGFP mouse fibroblasts, % GFP-positive cells imaging, 3 d; cells co-treated with 5-aza-dC sensitizer; scaled so ellipticine positive control = 100%; activation, % at 7.58 µM; hit rate 0.055% among 360,000; AID 743238;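 active = mean normalized replicate activation at least 10% and every replicate at or above 10%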;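 also: 0% = median of on-plate neutral control wells and 100% = ellipticine 6 µM median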
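System: 68-5-11 XiGFP fibroblast line; Timing: 3 days compound exposure; Compound dosing: one concentration, pinned; Benchmarks: positive control ellipticine, 6 µM final; Buffer or medium: DMEM containing 5-aza-dC.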
Yeast UUG start = alters start codon recognition fidelity in yeast. S. cerevisiae UUG-firefly luciferase reporter, luminescence/redox ratio. 350,000 tested, 0.13% active. activity score, % at 18.7 µM. AID 602363;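 active means replicate mean at a twofold rise or more, about +100% in these data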;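 further: firefly luciferase made from a UUG start codon reports start codon fidelity; reporter light over untreated wells divided by growth signal over untreated wells; some hits fall short of that in this replicate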
RAD54 branch = inhibitors of human RAD54 branch migration; RAD54 Holliday junction branch migration, FAM/BHQ fluorescence; inhibition, % at 10.4 µM; hit rate 0.14% among 360,000; AID 602329;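 active = mean normalized replicate activity at least 40 and at least half of replicates scoring 40 or more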;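 also: 0% = median of neutral control wells and 100% = median of positive control wells; inhibitors cause a drop in the FAM fluorescence signal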
Starred values were filed as active, the others as inactive; . = no result given.

1	O=S(=O)(NC[C@@H]1N[C@H](CO)[C@@H]1c1ccc(C2=CCCC2)cc1)c1ccccc1
2	COc1cc(N/C(N)=N/c2nc(C)cc(C)n2)cc(OC)c1
3	COc1ccc(N/C(N)=N/c2nc(C)cc(C)n2)c(OC)c1
4	COc1ccc(NC(=O)Nc2ccc3c(c2)C(=O)N([C@@H](C)CO)C[C@@H](C)[C@H](CN(C)C(=O)NC(C)C)OCCCC[C@@H](C)O3)cc1
5	COc1ccc(NC(=O)CCCn2c(=S)[nH]c3ccccc3c2=O)cc1
6	Cc1ccccc1-c1cnc2c(c1)C(=O)N([C@@H](C)CO)C[C@H](C)[C@H](CN(C)C(=O)CC1CC1)O2

Compound	1	2	3	4	5	6
RAD52 anneal inh	-38	81*	9	12	-2	.
E-sel inducer	0	0	.	.	90*	-1
XiGFP reactiv	0	0	0	0	0	0
Yeast UUG start	-6	-17	.	14	-14	.
RAD54 branch	1	10	.	2	-4	.

7	CCOC(=O)c1c(CC(C)C)csc1/N=C/C1C(=O)CCCC1=O
8	CCOC(=O)c1c(/N=C/C2C(=O)CCCC2=O)sc2c1CCCC2
9	Cc1noc(C)c1NC(=O)N(C)C[C@@H]1Oc2ccc(NC(=O)Cc3cn(C)c4ccccc34)cc2C(=O)N([C@@H](C)CO)C[C@@H]1C
10	N#C/C(=C/c1ccc(-c2ccccc2)o1)c1nc(-c2cccs2)cs1
11	N#C/C(=C/c1ccc(-c2ccc(S(N)(=O)=O)cc2)o1)C(=O)Nc1ccccc1
12	N#C/C(=C/c1ccc(-c2ccc(S(N)(=O)=O)cc2)o1)c1nc2ccccc2s1

Compound	7	8	9	10	11	12
RAD52 anneal inh	-104	-8	6	-196	.	.
E-sel inducer	33*	.	.	.	.	5
XiGFP reactiv	0	0	-1	77*	0	92*
Yeast UUG start	.	.	22	.	-5	.
RAD54 branch	.	.	13	.	-9	.

13	N#C/C(=C\c1ccc(-c2ccc(F)cc2)o1)C(=O)Nc1nc(-c2cccs2)cs1
14	O=C(c1ccccc1)N1C[C@@H]2[C@H](c3ccccc31)[C@H](CO)N2C(=O)Nc1ccccc1Cl
15	C[C@@H]1CCCCO[C@@H](CN(C)C(=O)c2ccccc2)[C@H](C)CN([C@H](C)CO)C(=O)c2cc(NC(=O)c3ccccc3)ccc2O1
16	COc1ccc(CN(C)C[C@@H]2Oc3ccc(NC(=O)Cc4ccccc4)cc3C(=O)N([C@H](C)CO)C[C@@H]2C)cc1
17	OC(CSc1ccc(F)cc1)CN1CCN(c2ccccc2)CC1 (stereo unspecified)
18	C[C@H]1CN([C@@H](C)CO)C(=O)Cc2cc(NS(=O)(=O)c3cccs3)ccc2O[C@@H]1CN(C)Cc1ccc(-c2ccccc2)cc1

Compound	13	14	15	16	17	18
RAD52 anneal inh	-76	12	2	6	-13	20
E-sel inducer	0	0	.	23	56*	0
XiGFP reactiv	0	0	0	-1	0	0
Yeast UUG start	.	-5	.	.	.	5
RAD54 branch	.	11	-2	3	.	0

19	COc1ccc(S(=O)(=O)N(C)C[C@H]2Oc3ccc(NC(=O)c4ccncc4)cc3C(=O)N([C@@H](C)CO)C[C@@H]2C)cc1
20	COc1ccc(S(=O)(=O)N(C)C[C@H]2Oc3ccc(NC(=O)c4ccncc4)cc3C(=O)N([C@H](C)CO)C[C@H]2C)cc1
21	C[C@H](CO)N1C[C@H](C)[C@@H](CN(C)C(=O)c2ccccc2F)Oc2ncc(C#Cc3ccccc3)cc2C1=O
22	CN1/C(=C\C(=O)c2cccs2)Sc2ccccc21
23	CN1/C(=C/C(=O)c2cccs2)Sc2ccccc21
24	COc1cccc(Oc2nc(N)ncc2[N+](=O)[O-])c1

Compound	19	20	21	22	23	24
RAD52 anneal inh	-6	-4	5	.	.	-8
E-sel inducer	47*	28*	0	.	.	29*
XiGFP reactiv	0	0	0	.	.	0
Yeast UUG start	2	-3	-10	-41	-17	.
RAD54 branch	0	-4	2	1	56*	.

Reprinted at random: four records from the list.
19	COc1ccc(S(=O)(=O)N(C)C[C@H]2Oc3ccc(NC(=O)c4ccncc4)cc3C(=O)N([C@@H](C)CO)C[C@@H]2C)cc1
21	C[C@H](CO)N1C[C@H](C)[C@@H](CN(C)C(=O)c2ccccc2F)Oc2ncc(C#Cc3ccccc3)cc2C1=O
22	CN1/C(=C\C(=O)c2cccs2)Sc2ccccc21
20	COc1ccc(S(=O)(=O)N(C)C[C@H]2Oc3ccc(NC(=O)c4ccncc4)cc3C(=O)N([C@H](C)CO)C[C@H]2C)cc1

Compound	19	21	22	20
RAD52 anneal inh	-6	5	.	-4
E-sel inducer	47*	0	.	28*
XiGFP reactiv	0	0	.	0
Yeast UUG start	2	-10	-41	-3
RAD54 branch	0	2	1	-4

Other compounds follow.
25	Nc1ncc([N+](=O)[O-])c(Oc2ccccc2F)n1
26	C[C@H](CO)N1C[C@H](C)[C@@H](CN(C)Cc2ccc(Cl)c(Cl)c2)Oc2ccc(NC(=O)Cc3ccccc3)cc2CC1=O
27	COc1ccccc1N(C)c1cc2c(c3c1ccn3C)C1CCC2C1 (stereo unspecified)
28	Cn1ccc2c(N(Cc3ccccc3)Cc3ccccc3)cc3c(c21)C1CCC3C1 (stereo unspecified)
29	CCNC(=O)C[C@@H]1C=C[C@H](NS(=O)(=O)c2ccc(F)cc2)[C@@H](CO)O1
30	CCn1c2ccccc2c2nnc(SCN3C(=O)c4ccccc4C3=O)nc21

Compound	25	26	27	28	29	30
RAD52 anneal inh	-22	-10	-5	-12	-11	-7
E-sel inducer	1	-1	0	4	0	121*
XiGFP reactiv	0	0	12*	0	0	.
Yeast UUG start	-6	11	-11	-5	-7	.
RAD54 branch	-5	2	3	-2	-2	.

31	Cc1noc(C)c1S(=O)(=O)Nc1ccc2c(c1)C(=O)N([C@H](C)CO)C[C@@H](C)[C@H](CN(C)C(=O)NC(C)C)O2
32	Cc1ccsc1C1Nc2ccccc2-c2nc3ccccc3n21 (stereo unspecified)
33	c1csc(C2Nc3ccccc3-c3nc4ccccc4n32)c1 (stereo unspecified)
34	O=C(NC(=S)N1CCN(c2ccc([N+](=O)[O-])cc2)CC1)c1ccccc1
35	Cc1ccc(C(=O)NC(=S)N2CCN(c3ccc([N+](=O)[O-])cc3)CC2)cc1
36	Cc1cccc(NC(=O)/C=C/c2ccc([N+](=O)[O-])s2)c1

Compound	31	32	33	34	35	36
RAD52 anneal inh	10	-10	.	-45	.	-13
E-sel inducer	0	3	0	33*	.	-2
XiGFP reactiv	0	30*	0	0	.	81*
Yeast UUG start	5	.	.	.	-15	.
RAD54 branch	-2	.	.	.	8	.

37	Cc1ccc(NC(=O)/C=C/c2ccc([N+](=O)[O-])s2)cc1
38	Cc1ccc(/C=C/C(=O)Nc2ccc([N+](=O)[O-])cc2)o1
39	Cc1cccc(NC(=S)N/N=C/c2ccc([N+](=O)[O-])s2)c1
40	Cc1ccc(NC(=O)/C=C/c2ccc([N+](=O)[O-])s2)c(C)c1
41	Cc1cc([N+](=O)[O-])ccc1NC(=O)/C=C/c1cccs1
42	CCCNC(=O)N1C[C@@H](C)[C@@H](OC)CN(C)C(=O)c2ccc(NS(=O)(=O)CC(F)(F)F)cc2OC[C@@H]1C

Compound	37	38	39	40	41	42
RAD52 anneal inh	.	-5	.	-10	.	-10
E-sel inducer	.	.	.	1	.	0
XiGFP reactiv	97*	.	.	37*	0	0
Yeast UUG start	.	-10	-33	.	.	.
RAD54 branch	.	3	-8	.	.	-5

43	Cn1cnc(S(=O)(=O)N[C@@H]2CC[C@@H](CC(=O)N3CCN(c4ccccc4)CC3)O[C@H]2CO)c1
44	O=S(=O)(c1cccs1)N1CCCCN2[C@H](CO)[C@H](c3ccc(C4=CCCCC4)cc3)[C@H]2C1
45	COc1ccc(S(=O)(=O)N2CCCCN3[C@H](CO)[C@H](c4ccc(C5=CCCCC5)cc4)[C@H]3C2)cc1
46	COc1ccc(S(=O)(=O)N2CCCCN3[C@H](CO)[C@H](c4ccc(C5=CCCC5)cc4)[C@H]3C2)cc1
47	COc1cccc(-c2ccc3c(c2)O[C@H](CN(C)C(=O)C2CCC2)[C@@H](C)CN([C@@H](C)CO)S3(=O)=O)c1
48	O=C(N[C@H]1CC[C@H](CCNC(=O)C2CC2)O[C@H]1CO)c1ccccn1

Compound	43	44	45	46	47	48
RAD52 anneal inh	-17	57*	60*	.	4	-2
E-sel inducer	-1	.	.	0	0	-1
XiGFP reactiv	-1	.	.	0	0	0
Yeast UUG start	-1	-4	-3	4	8	-6
RAD54 branch	5	-3	-6	6	-4	-5
